Tested on: HCT116 cell lines
Test: IC50 and cell viability assay of clinical drugs (CCK-8)
Type: cell-based, human
Conditions: CCK-8, absorbance 450 nm, triplicate, mean ± SD, Resistance = drug does not affect cell viability
Experimental: All the mediums were purchased from […].
To determine suitable cell seeding number for each cell line, different number (300, 500, 1000, 3000) of cells/wells were seeded in a 96-well plate. A cell viability was determined using a real-time viability assay (RealTime-Glo™ Assay Reagent). Luminescence intensities were measured at different time points (4, 8, 16, 24, 36, 48, 60 and 72 hours) to evaluate a cell growth curve. To establish IC50 values of ten drugs on each cell line, gradient concentrations of each drug were prepared. 5-FU, Oxaliplatin, Gemcitabine, Irinotecan, Leucovorin, Regorafenib, Lenvatinib are small molecule drugs, which were prepared with final concentrations of 100, 50, 25, 10, 5, 1, 0.1, 0.01 and 0.001 μM; and Bevacizumab, Cetuximab, Panitumumab are macromolecular drugs, which were prepared with the final concentrations of 1, 0.5, 0.25, 0.1, 0.05, 0.01, 0.001, 0.0001 and 0.00001 μM. The cell viability was measured with Cell Counting Kit 8 (e.g., CCK-8 purchased from Dojindo molecular technologies, Japan), and cell viability assay was performed after 2 hours of incubation by measuring the absorbances at 450 nm. Relative cell numbers were determined as compared with the control cells. All experiments were performed in triplicate manner, and data were represented as expressed as mean±standard deviation (mean±SD).

- IC50 (μM) ± SD: Resistance
Substance: Cetuximab [Cetuximab (C)]
